Measured values published in US20160340652A1, “CULTURE MEDIUM FOR STEM CELL DIFFERENTIATION” (The USA, as represented by the Secretary, Dept. of Health …, priority 2013, published 2016).

Test system: hPSC
Assay: Comparison of heparin, albumin and B27 on cardiac differentiation in E8 basal, RPMI and DMEM/F12 media
Format: cell-based, human
Source text: Data shown is FACS using CTNT antibody. The batch numbers of the heparin or albumin batches used are listed.
Data shown is realtime PCR of cardiac troponin T (CTNT).
After establishing heparin as an efficient cardiac-promoting reagent, we revisited B27 and albumin's role in cardiac differentiation. Most current protocols in the literature used RPMI basal medium for cardiac differentiation, because DMEM/F12 was reported to be less efficient (Lian, et al., PNAS, 2012, supra; Burridge et al., Cell stem cell, 2012, supra).

**Q.** With albumin: recombinant human albumin as the substance, how does the cardiac differentiation (E8 basal media, albumin alone) read?
**A.** couldn't promote cardiac differentiation

**Q.** And the cardiac differentiation (E8 basal media, presence of IWP2)?
**A.** only a marginal improvement

**Q.** And the cardiac differentiation (RPMI media, with or without IWP2)?
**A.** positive impact
